From patent US20220265614A1, “TREATMENT COMPRISING FXR AGONISTS” (Novartis AG, priority 2019, published 2022)

Legend:
[1] = test system: patients with biopsy-proven NASH and fibrosis stages 2-3; experiment: FLIGHT-FXR (NCT02855164) Part C interim analysis at week 12; type: in vivo, human; settings: for patients achieving relative HFF reduction by ≥30% (without imputation for missing values): week 12
From the text: FLIGHT-FXR (NCT02855164) is a phase 2 randomized, double blind, placebo-controlled, 3-part, adaptive-design study to assess the safety, tolerability, and efficacy of several doses of tropifexor (LJN452) in patients with non-alcoholic steatohepatitis (NASH).
METHODS: In Part C, the effects of higher doses of tropifexor on biomarkers and histology will be evaluated over 48 weeks in patients with biopsy-proven NASH and fibrosis stages 2-3. In all, 152 patients (64% females) were randomized to receive placebo (N=51), tropifexor 140 μg (N=50) or tropifexor 200 μg (N=51) once daily. Prespecified endpoints assessed at week 12 included overall safety and changes in alanine aminotransferase (ALT), hepatic fat fraction (HFF), gamma glutamyl transferase (GGT), and body weight.

[2] = test system: NASH patients; experiment: Parts A and B of study CLJN452A2202 in NASH patients, 12 weeks; settings: 60 and 90 μg, Week 12

O=C(O)c1cc(F)c2nc(N3C4CCC3CC(OCc3c(-c5ccccc5OC(F)(F)F)noc3C3CC3)C4)sc2c1 [Tropifexor, 2-[(1R,3r,5S)-3-({5-cyclopropyl-3-[2-(trifluoromethoxy)phenyl]-1,2-oxazol-4-yl}methoxy)-8-azabicyclo[3.2.1]octan-8-yl]-4-fluoro-1,3-benzothiazole-6-carboxylic acid]
patients achieving relative HFF reduction by ≥30% (without imputation for missing values) ([1]; 140 μg group): 32% | LS mean relative change (SE) in HFF (MRI-PDFF) from baseline to Week 12 ([1]; 140 μg once daily, N = 50): −16.99 (4.64) % | patients achieving relative HFF reduction by ≥30% (without imputation for missing values) ([1]; 200 μg group): 64% | LS mean relative change (SE) in HFF (MRI-PDFF) from baseline to Week 12 ([1]; 200 μg once daily, N = 51): −31.37 (4.30) % | safety [2]: favorable safety
